Literature values as cited in patent US9119409B2, “Water soluble nutritional supplement for ruminants” (priority 2013, dated 2015).

Conditions: in water; individual salt

## calcium gluconate
  solubility: about 30 g/L
